In ChEMBL document CHEMBL4229486, “Design and synthesis of novel thiadiazole-thiazolone hybrids as potential inhibitors of the human mitotic kinesin Eg5” (Bioorg Med Chem Lett, 2018):
Activity calls are given as the source filed them. The calls are words filed in the database; no cut-off is given here.

Target: T1, Kinesin-like protein KIF11 (Homo sapiens) (UniProt P52732)
T1 sequence (whole entry): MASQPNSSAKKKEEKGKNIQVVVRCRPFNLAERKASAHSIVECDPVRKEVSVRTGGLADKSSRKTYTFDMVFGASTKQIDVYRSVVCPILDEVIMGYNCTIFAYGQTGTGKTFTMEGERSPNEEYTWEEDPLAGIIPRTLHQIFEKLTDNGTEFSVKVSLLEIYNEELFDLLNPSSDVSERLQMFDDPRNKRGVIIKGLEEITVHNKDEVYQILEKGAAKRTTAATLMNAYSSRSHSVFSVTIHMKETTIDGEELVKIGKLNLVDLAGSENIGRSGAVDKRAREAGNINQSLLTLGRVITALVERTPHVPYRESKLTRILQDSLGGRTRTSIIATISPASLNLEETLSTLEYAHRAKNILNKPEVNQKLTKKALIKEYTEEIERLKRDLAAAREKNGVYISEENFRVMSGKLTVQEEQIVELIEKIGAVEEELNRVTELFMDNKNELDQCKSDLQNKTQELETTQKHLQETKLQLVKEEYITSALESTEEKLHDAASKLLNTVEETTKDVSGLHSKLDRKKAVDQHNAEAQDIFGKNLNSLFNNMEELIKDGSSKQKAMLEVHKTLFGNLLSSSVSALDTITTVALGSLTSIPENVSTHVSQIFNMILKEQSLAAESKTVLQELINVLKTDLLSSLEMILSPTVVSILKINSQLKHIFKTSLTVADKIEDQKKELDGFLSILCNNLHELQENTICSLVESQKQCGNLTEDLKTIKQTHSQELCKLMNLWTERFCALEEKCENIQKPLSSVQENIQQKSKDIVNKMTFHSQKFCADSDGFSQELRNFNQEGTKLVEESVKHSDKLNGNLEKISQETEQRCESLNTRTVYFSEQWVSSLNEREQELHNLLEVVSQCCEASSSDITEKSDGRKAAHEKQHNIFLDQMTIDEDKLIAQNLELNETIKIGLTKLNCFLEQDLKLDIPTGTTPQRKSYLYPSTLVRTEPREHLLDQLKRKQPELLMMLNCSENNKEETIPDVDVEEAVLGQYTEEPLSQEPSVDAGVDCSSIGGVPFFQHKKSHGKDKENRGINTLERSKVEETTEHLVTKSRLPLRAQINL
Assay: Inhibition of basal EG5 ATPase activity (unknown origin) by pyruvate kinase/lactate dehydrogenase enzyme coupled photometric assay

CC(=O)N1N=C(NC2=NC(=O)/C(=C/c3ccccc3[N+](=O)[O-])S2)SC1(C)c1ccccc1 (stereo unspecified)
inhibition: inactive
